Assay: Analgesic activity in Writhing test (W.t.) after p.o. administration
Format: in vivo
Conditions: TI = therapeutic index = LD50 (so in the source)

CC(=O)Nc1ccc(O)cc1 [paracetamol, p(acetylamino)-phenol, reference compound]
TI (therapeutic index), W.t.: 2.8

From US5064826A, “Novel triazolo-pyrimidine derivatives” (priority 1989, dated 1991)
